Source: patent publication US8044236B2, “Carboxilic acid derivatives” (Institute of Medicinal Molecular Design, Inc., priority 2006, dated 2011)

Amino acid sequences for entries named in this document (tags omitted). Residues count along the entry.
UniProt P05121, 24-402: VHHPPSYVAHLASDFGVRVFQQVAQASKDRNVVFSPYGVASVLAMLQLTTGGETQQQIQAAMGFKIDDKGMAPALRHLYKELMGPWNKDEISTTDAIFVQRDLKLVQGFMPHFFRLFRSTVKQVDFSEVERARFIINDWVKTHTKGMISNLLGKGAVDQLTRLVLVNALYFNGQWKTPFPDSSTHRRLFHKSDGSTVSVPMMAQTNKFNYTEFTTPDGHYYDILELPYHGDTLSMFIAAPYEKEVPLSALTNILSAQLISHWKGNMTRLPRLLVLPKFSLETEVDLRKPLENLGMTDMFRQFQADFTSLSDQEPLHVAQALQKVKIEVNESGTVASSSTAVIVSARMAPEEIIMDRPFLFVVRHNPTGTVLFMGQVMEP

Key:
recombinant human PAI-1 [1] = biological target: T1, recombinant human PAI-1 (Homo sapiens, UniProt P05121); assay: Test Example 1: human PAI-1 inhibitory activity (tPA fluorogenic substrate, pH7.5 Tris buffer); type: biochemical; parameters: purchased Molecular Innovations, Inc; details: pH 7.5, read-out: Inhibition Rate of Human PAI-1 Activity (%)
recombinant human PAI-1 [2] = biological target: T1, recombinant human PAI-1; assay: biochemical
Procedure: <Compotion of pH7.4 HEPES Buffer>
(§1) • 0.1 M HEPES • 0.1 M NaCl • […] • 0.1% Polyethylene glycol 8,000 (Hampton Research Corporation) • 2 mM Dimethyldecylphoshine oxide [Apo-10] (Fluka Corporation) [Results]

recombinant rat PAI-1 = biological target: T2, recombinant rat PAI-1 (Rattus norvegicus, UniProt P20961); assay: biochemical
T2 sequence (P20961 24-402): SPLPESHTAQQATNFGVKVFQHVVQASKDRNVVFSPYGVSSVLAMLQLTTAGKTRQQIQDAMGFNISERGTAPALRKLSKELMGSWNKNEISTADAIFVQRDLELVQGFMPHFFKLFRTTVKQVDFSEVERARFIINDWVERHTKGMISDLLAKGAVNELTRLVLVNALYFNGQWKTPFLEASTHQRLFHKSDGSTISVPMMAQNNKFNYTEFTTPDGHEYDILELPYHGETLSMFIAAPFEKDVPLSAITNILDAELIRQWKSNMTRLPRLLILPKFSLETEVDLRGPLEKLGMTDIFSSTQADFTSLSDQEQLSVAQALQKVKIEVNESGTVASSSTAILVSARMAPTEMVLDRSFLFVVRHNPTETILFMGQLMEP
Procedure: as §1

SMILES	inhibition at 5 µM (recombinant human PAI-1 [1]) [%]	inhibition at 10 µM (recombinant human PAI-1 [1]) [%]	inhibition at 25 µM (recombinant human PAI-1 [1]) [%]	pIC50 (recombinant human PAI-1 [2])	pIC50 (recombinant rat PAI-1)
O=C(O)/C=C/c1cc(-c2ccccc2[N+](=O)[O-])ccc1OCc1ccccc1 [Compound 7, (E)-3-(4-benzyloxy-2′-nitrobiphenyl-3-yl)propenoic acid]	14	21	–	–	–
CCCCc1ccc(COc2ccc(-c3ccc(OC(F)(F)F)cc3)cc2CCC(=O)O)cc1 [Compound 35, 3-[4-(4-butylbenzyloxy)-4′-(trifluoromethoxy)biphenyl-3-yl]propanoic acid]	–	–	–	5.85	5.48
O=C(O)/C=C/c1cc(-c2ccccc2)ccc1OCc1ccccc1 [Compound 50, (E)-3-(4-benzyloxybiphenyl-3-yl)propenoic acid]	–	15	31	–	–

More lines, main results first:

inhibition at 5 µM (recombinant human PAI-1 [1]) [%]	inhibition at 10 µM (recombinant human PAI-1 [1]) [%]	inhibition at 25 µM (recombinant human PAI-1 [1]) [%]	SMILES	pIC50 (recombinant human PAI-1 [2])	pIC50 (recombinant rat PAI-1)
36	65	92	O=C(O)/C=C/c1cc(-c2ccc(OC(F)(F)F)cc2)ccc1OCc1ccc(Cl)cc1 [Compound 19, (E)-3-[4-(4-chlorobenzyloxy)-4′-(trifluoromethoxy)biphenyl-3-yl]propenoic acid]	–	–
–	13	77	O=C(O)CCc1cc(-c2ccc(OC(F)(F)F)cc2)ccc1OCc1ccc(Cl)cc1 [Compound 20, 3-[4-(4-chlorobenzyloxy)-4′-(trifluoromethoxy)biphenyl-3-yl]propanoic acid]	–	–
25	56	91	Cc1ccc(-c2ccc(OCc3ccc(C(C)(C)C)cc3)c(/C=C/C(=O)O)c2)cc1 [Compound 46, (E)-3-{4-[4-(tert-butyl)benzyloxy]-4′-methylbiphenyl-3-yl}propenoic acid]	–	–
27	59	97	Cc1ccc(-c2ccc(OCc3ccc(C(C)(C)C)cc3)c(CCC(=O)O)c2)cc1 [Compound 47, 3-{4-[4-(tert-butyl)benzyloxy]-4′-methylbiphenyl-3-yl}propanoic acid]	–	–
23	56	96	CC(C)(C)c1ccc(COc2ccc(-c3ccc(Cl)cc3)cc2CCC(=O)O)cc1 [Compound 55, 3-{4-[4-(tert-butyl)benzyloxy]-4′-chlorobiphenyl-3-yl}propanoic acid]	–	–

pIC50: −log10 of the molar value.
